In US20250281518A1, “METHODS AND AGENTS FOR PREVENTING SKELETAL AGING, OSTEOPOROSIS AND OBESITY” (The Regents of the University of California, priority 2022, published 2025) one finds solubility in water data, which are given here for one substance.

This data set in a line: Solubility in water.

Take alpha-ketoglutarate [α-KG]: the solubility in water result is reported as “dissolve well in water”.
